The text below walks through data of article PMC7763263 (2020).

Amino acid sequences for entries named in this document (tags omitted). Residues count along the entry.
UniProt P27338, 2-520 limits assumed: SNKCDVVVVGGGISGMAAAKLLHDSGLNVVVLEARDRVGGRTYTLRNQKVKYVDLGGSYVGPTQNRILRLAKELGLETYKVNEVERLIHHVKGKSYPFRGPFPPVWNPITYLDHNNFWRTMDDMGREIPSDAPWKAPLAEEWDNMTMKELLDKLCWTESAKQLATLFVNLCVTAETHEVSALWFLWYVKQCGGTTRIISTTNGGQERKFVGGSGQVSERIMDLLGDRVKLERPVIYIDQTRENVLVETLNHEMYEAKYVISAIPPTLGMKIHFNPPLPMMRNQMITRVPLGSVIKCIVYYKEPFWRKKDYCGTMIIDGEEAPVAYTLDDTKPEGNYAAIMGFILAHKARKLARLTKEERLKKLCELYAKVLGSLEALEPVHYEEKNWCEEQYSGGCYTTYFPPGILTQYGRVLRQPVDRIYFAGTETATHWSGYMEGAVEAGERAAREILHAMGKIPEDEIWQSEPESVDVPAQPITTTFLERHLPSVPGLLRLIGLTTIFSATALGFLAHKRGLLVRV
UniProt P27338, whole entry: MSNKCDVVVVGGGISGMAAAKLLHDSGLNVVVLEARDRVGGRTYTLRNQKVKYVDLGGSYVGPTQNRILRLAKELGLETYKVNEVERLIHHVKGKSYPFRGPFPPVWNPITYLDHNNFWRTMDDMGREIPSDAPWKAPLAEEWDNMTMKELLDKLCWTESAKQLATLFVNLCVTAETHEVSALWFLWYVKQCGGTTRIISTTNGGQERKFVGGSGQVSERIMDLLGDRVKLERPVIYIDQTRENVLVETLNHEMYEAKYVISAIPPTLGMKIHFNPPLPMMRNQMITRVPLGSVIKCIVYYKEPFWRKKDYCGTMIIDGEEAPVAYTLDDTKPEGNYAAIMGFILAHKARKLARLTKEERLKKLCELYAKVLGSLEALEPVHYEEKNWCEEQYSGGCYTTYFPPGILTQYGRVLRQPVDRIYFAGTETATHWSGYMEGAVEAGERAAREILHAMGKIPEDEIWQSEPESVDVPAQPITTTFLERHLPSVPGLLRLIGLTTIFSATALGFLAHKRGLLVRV
UniProt P21397, whole entry: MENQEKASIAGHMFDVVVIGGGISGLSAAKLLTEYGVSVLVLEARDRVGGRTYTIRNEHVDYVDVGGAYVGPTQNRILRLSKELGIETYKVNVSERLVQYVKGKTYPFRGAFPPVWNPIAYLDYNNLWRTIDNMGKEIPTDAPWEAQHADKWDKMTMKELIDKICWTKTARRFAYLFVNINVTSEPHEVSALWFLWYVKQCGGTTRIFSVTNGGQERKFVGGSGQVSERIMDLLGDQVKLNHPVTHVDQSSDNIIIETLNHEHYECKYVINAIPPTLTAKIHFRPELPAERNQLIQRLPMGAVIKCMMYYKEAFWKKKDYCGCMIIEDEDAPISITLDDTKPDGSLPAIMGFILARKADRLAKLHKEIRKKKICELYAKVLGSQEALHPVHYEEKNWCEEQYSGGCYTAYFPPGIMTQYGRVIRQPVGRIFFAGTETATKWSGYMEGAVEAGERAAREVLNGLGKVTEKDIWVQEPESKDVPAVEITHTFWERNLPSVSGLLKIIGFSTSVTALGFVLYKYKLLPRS

Like-named read-outs stand apart in the source and are kept apart here.

The target of experiment [1] is T1, human MAO-B (Homo sapiens, UniProt P27338). The experiment can be described thus: Reversible inhibition Ki, direct assay. As to conditions: read-out: Km as MAO-B substrate; phenelzine oxidized by MAO-B.
The target in experiment [2] is T2, MAO-A (Homo sapiens, UniProt P21397). Particulars: read-out: MAO-A Ki Direct; ref Binda et al. [11]; cited from earlier work.
In experiment [3] the target is T1, human MAO-B. As to conditions: cited from earlier work.
Experiment [4] concerns the target T1, human MAO-B. Particulars: read-out: MAO-B KI; inactivation constant; cited from earlier work.
For experiment [5], the target named is T2, MAO-A. As to conditions: read-out: MAO-A IC50 AR Assay; initial reversible inhibition; ref Binda et al. [11]; cited from earlier work.
In experiment [6] the target is T1, human MAO-B. Particulars: without preincubation, tyramine 2× KM (0.32 mM); mean ± SD of 2–4 experiments.
Experiment [7] addresses T1, human MAO-B. As to conditions: human MAO in insect cell membranes, saturating substrate.
Experiment [8] concerns the target T2, MAO-A. In words: IC50 after 30 min preincubation, coupled assay with saturating substrate. As to conditions: ratio of IC50 without/with 30 min preincubation.

Turning to `NNCCc1ccccc1` [Phenelzine], at human MAO-B [1], the Km is 215 µM. Moreover, the Ki on MAO-A [2] is 47 ± 2 µM; on human MAO-B [3] (read-out: Ki for reversible inhibition of MAO-B, assay not stated), 47 µM; at human MAO-B [3] (read-out: MAO-B Ki Direct, direct assay, ref Binda et al. [11]), 15 ± 2 µM; on human MAO-B [4], 50 µM. At MAO-A [5], the IC50 was 112 ± 28 µM. Moreover, the “MAO-B IC50 AR Assay” value on human MAO-B [6] was “(substrate)”. Moreover, the “MAO-B IC50 after 30 min preincubation” value at human MAO-B [7] is recorded as “Substrate”. The “MAO-A Enhancement” value at MAO-A [8] is listed as 24.9.

As usually defined, the Km is the substrate concentration at which the rate is half of its maximum. The term IC50 denotes the concentration at which inhibition is half-maximal.
